The record followed here is ChEMBL document CHEMBL1151692, “Substituted hippurates and hippurate analogs as substrates and inhibitors of peptidylglycine alpha-hydroxylating monooxygenase (PHM)” (Bioorg Med Chem, 2008).

Data set [1] deals with peptidylglycine alpha-amidating monooxygenase (Rattus norvegicus) (UniProt P14925). The data set is described as follows: Inhibition of rat peptidylamidoglycolate lyase assessed as ascorbate-independent dealkylation of alpha-hydroxy-hipurate. As to conditions: concentration not given here. On the set-up: concentration or dose not given beside the values.
For data set [2], the target named is T1, Peptidylglycine alpha-amidating monooxygenase (Rattus norvegicus) (UniProt P14925).
T1 sequence (whole entry): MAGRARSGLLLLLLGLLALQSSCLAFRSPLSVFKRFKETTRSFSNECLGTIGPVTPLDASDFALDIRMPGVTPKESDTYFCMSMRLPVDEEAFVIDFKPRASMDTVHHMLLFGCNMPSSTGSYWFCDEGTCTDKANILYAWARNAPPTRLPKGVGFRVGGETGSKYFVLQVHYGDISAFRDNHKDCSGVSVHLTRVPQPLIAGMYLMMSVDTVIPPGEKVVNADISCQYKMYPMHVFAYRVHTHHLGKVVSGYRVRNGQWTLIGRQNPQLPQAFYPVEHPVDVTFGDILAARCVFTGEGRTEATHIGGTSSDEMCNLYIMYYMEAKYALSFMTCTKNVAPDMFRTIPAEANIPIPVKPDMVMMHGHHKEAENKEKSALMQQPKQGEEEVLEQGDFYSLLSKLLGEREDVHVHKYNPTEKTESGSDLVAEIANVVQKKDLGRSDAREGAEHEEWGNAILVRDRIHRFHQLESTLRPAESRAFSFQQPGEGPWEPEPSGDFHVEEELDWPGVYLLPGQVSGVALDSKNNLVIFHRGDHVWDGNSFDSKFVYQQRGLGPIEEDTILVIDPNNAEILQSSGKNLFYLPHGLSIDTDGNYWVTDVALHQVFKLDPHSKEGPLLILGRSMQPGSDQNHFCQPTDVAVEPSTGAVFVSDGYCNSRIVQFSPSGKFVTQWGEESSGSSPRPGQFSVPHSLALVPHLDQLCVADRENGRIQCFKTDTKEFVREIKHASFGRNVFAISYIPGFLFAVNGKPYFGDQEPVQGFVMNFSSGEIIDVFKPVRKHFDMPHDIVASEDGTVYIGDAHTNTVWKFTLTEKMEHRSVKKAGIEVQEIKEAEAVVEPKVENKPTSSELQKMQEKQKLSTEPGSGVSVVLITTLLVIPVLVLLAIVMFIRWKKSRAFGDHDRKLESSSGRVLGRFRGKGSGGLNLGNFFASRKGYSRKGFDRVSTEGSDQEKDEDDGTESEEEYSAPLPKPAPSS
As to the kind of experiment: (§1) Activity of rat recombinant peptidylglycine alpha-amidating monooxygenase assessed as stimulation of oxygen consumption. The method in brief: (§2)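 Recombinant rat type A medullary thyroid carcinoma PAM (bifunctional), 15–50 μg, in 100 mM MES/NaOH pH 6.0, 30 mM NaCl, 1% ethanol, 0.001% Triton X-100, 10 μg/mL catalase, 1.0 μM Cu(NO3)2, 5.0 mM ascorbate, ~200 μM O2, 37 °C. Substrate generally 0.3–5.0 KM,app. Initial O2 consumption rates read by oxygen monitor and fit to Michaelis–Menten.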

The target of data set [3] is T1, Peptidylglycine alpha-amidating monooxygenase (Rattus norvegicus). The data set is described as follows: Ratio of Vm(app) to Km(app) for rat recombinant peptidylglycine alpha-amidating monooxygenase. The method in brief: as §2
Data set [4] has the same target. The data set is described as follows: Ratio of Vm(app) to Km(app) for rat recombinant peptidylglycine alpha-amidating monooxygenase relative to hippuric acid. The method in brief: as §2
Substrate in data set [5]: CC(C)[C@H](NC(=O)[C@H](Cc1ccc(O)cc1)NS(=O)(=O)c1cccc2c(N(C)C)cccc12)C(=O)NCC(=O)O
The description is as §1. The method in brief:
as §2

Substrate in data set [6]: O=C(O)CNC(=O)CCCc1ccccc1
Described as §1. The method in brief:
as §2

Substrate in data set [7]: O=C(O)CNC(=O)c1cccnc1
The data set is described as §1. The method in brief: as §2

Substrate in data set [8]: O=C(O)CNC(=O)CSc1ccccc1
Described as §1. The method in brief:
as §2

Substrate in data set [9]: C[C@@H](NC(=O)OCc1ccccc1)C(=O)O
The description is as §1. The method in brief: as §2

Substrate in data set [10]: O=C(O)CNC(=O)c1c(F)cccc1F
The description is as §1. The method in brief:
as §2

Substrate in data set [11]: O=C(O)CNC(=O)c1cccs1
The data set is described as §1. The method in brief:
as §2

Substrate in data set [12]: O=C(O)CNC(=O)Cc1ccccc1
Described as §1. The method in brief: as §2

Bounds are passed on as bounds.

On to `O=C(O)CCC(=O)c1ccccc1`, for which the inhibition in data set [1] was < 5%.

On to `O=C(O)CNC(=O)Cc1ccccc1`, for which the Vmax(app) in data set [2] was 7.4 s⁻¹. For the same molecule, in data set [3], the Ratio worked out at 4.6 ×10⁴ /M/s. For the same molecule, the Activity in data set [4] was 7.4.

As to `C[C@@H](NC(=O)OCc1ccccc1)C(=O)O`, the Vmax(app) in data set [2] was found to be 1.4 s⁻¹. For the same molecule, the Ratio in data set [3] was found to be 41 M⁻¹ s⁻¹.

As for `CCOC(=O)CNC(=O)[C@H](CS)NC(=O)CC[C@H](N)C(=O)O`, the inhibition in data set [1] was < 5%.

`O=C(O)CNC(=O)c1cccnc1`: the Vmax(app) in data set [2] was 8 s⁻¹. The Ratio in [3] stood at 4.2 ×10³ /M/s.

B1: Peptidylglycine alpha-amidating monooxygenase (Rattus norvegicus), P14925 (protein)
chain: T1 sequence (whole entry)
Turning to B1, the Km in data set [5] amounted to 3.5 µM; in data set [6] it was 160 µM; in data set [7], 1900 µM; in data set [8], 190 µM; in data set [9], 35000 µM; in [10], 19000 µM. Moreover, the Km in data set [11] is 1600 µM; in data set [12], 160 µM.
